The target in this assay is T1, human ferroportin (Homo sapiens, UniProt Q9NP59).
T1 sequence (Q9NP59 1-571): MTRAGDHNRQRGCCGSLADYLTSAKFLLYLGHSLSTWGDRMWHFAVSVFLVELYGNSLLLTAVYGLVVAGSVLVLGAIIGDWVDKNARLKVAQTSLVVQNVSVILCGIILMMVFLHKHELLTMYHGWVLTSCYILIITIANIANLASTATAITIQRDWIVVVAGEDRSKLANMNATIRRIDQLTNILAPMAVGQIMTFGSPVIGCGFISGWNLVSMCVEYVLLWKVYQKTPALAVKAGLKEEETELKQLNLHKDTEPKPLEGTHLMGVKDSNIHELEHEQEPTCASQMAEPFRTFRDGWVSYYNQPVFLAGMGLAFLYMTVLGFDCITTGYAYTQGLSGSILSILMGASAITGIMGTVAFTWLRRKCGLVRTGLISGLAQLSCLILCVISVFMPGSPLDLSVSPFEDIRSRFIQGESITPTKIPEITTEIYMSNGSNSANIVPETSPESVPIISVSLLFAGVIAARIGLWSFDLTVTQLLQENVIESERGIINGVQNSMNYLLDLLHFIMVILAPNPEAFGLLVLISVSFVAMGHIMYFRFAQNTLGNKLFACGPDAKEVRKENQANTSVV
The class given is cell-based. The conditions noted are these: Hepcidin analog peptides; read-out: Potency EC50. An excerpt: The cDNA encoding the human ferroportin (SLC40A1) was cloned from a cDNA clone from Origene (NM_014585). The DNA encoding the ferroportin was amplified by PCR using primers also encoding terminal restriction sites for subcloning, but without the termination codon. The ferroportin receptor was subcloned into a mammalian GFP expression vector containing a neomycin (G418) resistance marker in such that the reading frame of the ferroportin was fused in frame with the GFP protein. The fidelity of the DNA encoding the protein was confirmed by DNA sequencing. HEK293 cells were used for transfection of the ferroportin-GFP receptor expression plasmid. The cells were grown according to standard protocol in growth medium and transfected with the plasmids using Lipofectamine (manufacturer's protocol, Invitrogen). […] The cells were propagated and frozen in aliquots.
Compound was added to desired final concentration for at least 18 hours in the incubator. […] Compound was added to desired final concentration for at least 18 hours but no more than 24 hours in the incubator.
A retro inverse peptide is a peptide with a reversed sequence in all D amino acids. […] The EC50 of these reference compounds for ferroportin degradation was determined according to the activity assay described above.

As to “Hy-DTHFPCIKFGPRSKGWVCK-NH2 [Compound 102]”, the EC50 is above 1000 nM.

As a reminder, the EC50 is the concentration needed to bring the measured effect to its halfway point.
